Experimental data as given in ChEMBL document CHEMBL4616598 (Bioorg Med Chem, 2020).

By UniProt entry, the sequences of proteins in these tests, tags left out.
UniProt P34969, whole entry: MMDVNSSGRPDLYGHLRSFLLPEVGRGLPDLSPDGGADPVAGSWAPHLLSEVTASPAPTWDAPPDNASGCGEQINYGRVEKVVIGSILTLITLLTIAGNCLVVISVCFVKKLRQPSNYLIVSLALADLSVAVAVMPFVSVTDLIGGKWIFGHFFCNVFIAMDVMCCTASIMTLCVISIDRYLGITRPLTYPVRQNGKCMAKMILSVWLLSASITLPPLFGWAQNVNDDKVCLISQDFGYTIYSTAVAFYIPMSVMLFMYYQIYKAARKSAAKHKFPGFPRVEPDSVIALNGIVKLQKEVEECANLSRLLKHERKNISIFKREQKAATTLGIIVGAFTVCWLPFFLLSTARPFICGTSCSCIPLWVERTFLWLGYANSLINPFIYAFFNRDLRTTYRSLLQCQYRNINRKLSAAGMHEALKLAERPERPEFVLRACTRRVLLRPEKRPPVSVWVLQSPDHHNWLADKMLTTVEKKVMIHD

molecular target: 5-hydroxytryptamine receptor 7 (Homo sapiens, UniProt P34969); assay: Displacement of [3H]-5-carboxamidotryptamine from human 5-HT7A receptor expressed in HEK293 cell membranes incubated for 90 mins by scintillation counting method

Structure (SMILES)	Ki [nM]
CCCN(CCC)[C@H]1CCc2cccc(O)c2C1	1000
CCCN(CCC)[C@@H]1CCc2cccc(O)c2C1	48
O=C1CC2(CCCC2)CC(=O)N1CCCCN1CCN(c2ncccn2)CC1 [BUSPIRONE]	840
